Assay results reported in PMC5681660 (2017).

Biological target: T1, human NTCP (Homo sapiens, UniProt Q14973)
T1 sequence (Q14973 1-349): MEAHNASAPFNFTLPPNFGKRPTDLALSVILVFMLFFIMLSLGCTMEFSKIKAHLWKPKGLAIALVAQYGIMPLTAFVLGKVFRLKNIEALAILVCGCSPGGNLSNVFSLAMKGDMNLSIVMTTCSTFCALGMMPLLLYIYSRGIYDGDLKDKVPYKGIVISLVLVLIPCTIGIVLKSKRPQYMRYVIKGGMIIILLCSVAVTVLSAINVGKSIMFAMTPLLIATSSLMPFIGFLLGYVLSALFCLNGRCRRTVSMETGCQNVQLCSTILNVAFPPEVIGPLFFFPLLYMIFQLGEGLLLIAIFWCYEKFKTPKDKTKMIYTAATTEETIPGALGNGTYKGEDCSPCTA
Assay: Screening taurocholate uptake assay (96-well, [14C]taurocholate, 10 µM drug)
Settings: Prestwick library screen

Cl.O.O.O=C1CC[C@@]2(O)[C@H]3Cc4ccc(O)c5c4[C@@]2(CCN3CC2CC2)[C@H]1O5 [Naltrexone hydrochloride dihydrate]
B-score functional assay: -0.138
